Values joined by “and” are separate entries in the source; they are usually repeats but may differ in a detail not shown here. Equal values may be shown once. This is a selection; strong and weak results do not stand in their true shares. Inconclusive results are not listed. Active and inactive are the calls of the source. Calls follow the shape of the dose curve; as a rule, active = well fitted inhibition curve with a large enough effect; inconclusive = small, poorly fitted or top-dose-only effect; inactive = no such curve, though single readings can be large or run the other way.
Target: Rap guanine nucleotide exchange factor 3 (Homo sapiens) (UniProt O95398)
Experiment: Validation qHTS for antagonist of cAMP-regulated guanine nucleotide exchange factor 3 (EPAC1); also: nearly all actives have a fitted effect of over 75% in size
Settings: EPAC1 Rap1B-BODIPY-GDP exchange, fluorescence
From the text: Assay Provider (PI): Xiaodong Cheng Ph.D.
The University of Texas Medical Branch, […], TX
In multi-cellular eukaryotic organisms, the effects of cAMP are transduced by two ubiquitously-expressed intracellular cAMP receptors, the classic protein kinase A/cAMP-dependent protein kinase (PKA/cAPK) and the more recently discovered exchange protein directly activated by cAMP/cAMP-regulated guanine nucleotide exchange factor (EPAC/cAMP-GEF). Both PKA and EPAC are ubiquitously expressed in all tissues, and an increase in intracellular cAMP levels will lead to the activation of both PKA and EPAC. Therefore, careful dissections of the individual role and relative contribution of EPAC and PKA within the overall cAMP signaling in various model systems are critical for further elucidating the mechanism of cAMP signaling. To date no EPAC-specific antagonists and agonist, as well as isoform-specific agonists have been reported, and developing EPAC-specific pharmacological probes to determine the physiological functions that EPAC play in the overall cAMP-mediated signaling remains a major challenge within the research field. Furthermore, identified regulators of EPAC may lead to new mechanism-based therapeutic strategies specifically targeting the EPAC / cAMP-signaling components as EPAC has been implicated to play important roles in major human pathological conditions such as diabetes, heart disease, and cancer.
This qHTS will be used to screen the Molecular Libraries Small Molecule Repository (MLSMR) as a concentration-titration series using the NCGC unique quantitative screening (qHTS) platform to find activators for EPAC1. In addition, this assay will also be used as a counterscreen for the EPAC2 qHTS. This fluorescent based assay is developed and validated for EPAC1 that measures exchange using EPAC effector Rap1 complex with BODIPY-GDP, a GDP analog with a tethered fluorophores. Activators are identified by monitoring the change in fluorescence signal as the exchanged free BODIPY-GDP has a reduced fluorescence compared to Rap1-bound BODIPY-GDP. Increase in signal (activation) is the desired outcome for the EPAC1 agonist while no activity in this assay is desired for the EPAC2 agonist counterscreen.
[1] de Rooij, J., Zwartkruis, F. J., Verheijen, M. H., Cool, R. H., Nijman, S. M., Wittinghofer, A., and Bos, J.L. (1998) Nature 396, 474-477.
Briefly, three uL of reagents (100 nM EPAC1, 250 nM RAP1B-BODIPY-GDP, 50 uM GDP) were dispensed into a 1536-well Greiner black solid-bottom medium binding assay plate. Controls and test compounds (23 nL) were transferred to the plate via a Kalypsys pin tool equipped with a 1536-pin array. The plates were centrifuged at 1,000 rpm for 15 seconds followed by 5 minute incubation at room temperature. The assay plates were read at 5 minute intervals for 30 minutes in the ViewLux plate reader using 480nm excitation and 540nm emission filters. The results were normalized to the […] positive control ATA and DMSO.

Sequences of proteins named here, by UniProt entry; tags and fusion partners are left off. A change or cut given only in a name is not applied to a line headed by its entry.
UniProt O95398: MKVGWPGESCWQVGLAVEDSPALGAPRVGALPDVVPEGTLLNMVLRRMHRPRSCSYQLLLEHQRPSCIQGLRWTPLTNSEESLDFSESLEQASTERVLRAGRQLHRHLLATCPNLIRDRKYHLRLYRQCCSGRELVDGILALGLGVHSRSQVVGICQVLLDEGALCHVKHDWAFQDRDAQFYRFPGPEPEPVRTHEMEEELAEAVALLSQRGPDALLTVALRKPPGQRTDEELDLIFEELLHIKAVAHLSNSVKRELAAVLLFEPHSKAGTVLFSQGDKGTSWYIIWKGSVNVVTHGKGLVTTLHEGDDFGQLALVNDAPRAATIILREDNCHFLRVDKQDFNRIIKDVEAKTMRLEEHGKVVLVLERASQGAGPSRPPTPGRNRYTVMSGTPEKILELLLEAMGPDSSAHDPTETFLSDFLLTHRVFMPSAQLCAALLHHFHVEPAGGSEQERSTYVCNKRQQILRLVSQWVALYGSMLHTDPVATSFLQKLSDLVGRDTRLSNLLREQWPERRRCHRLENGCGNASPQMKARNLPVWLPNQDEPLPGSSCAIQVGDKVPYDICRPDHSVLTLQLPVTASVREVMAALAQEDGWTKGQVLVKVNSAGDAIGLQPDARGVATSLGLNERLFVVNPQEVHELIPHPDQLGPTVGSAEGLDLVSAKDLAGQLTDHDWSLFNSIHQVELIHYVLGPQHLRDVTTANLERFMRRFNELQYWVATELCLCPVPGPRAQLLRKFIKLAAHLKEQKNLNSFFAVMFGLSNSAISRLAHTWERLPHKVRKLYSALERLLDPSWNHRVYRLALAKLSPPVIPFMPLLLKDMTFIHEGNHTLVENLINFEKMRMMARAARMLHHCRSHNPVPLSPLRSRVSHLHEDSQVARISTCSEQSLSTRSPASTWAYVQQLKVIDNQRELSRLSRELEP

## Nc1c(O)cc([N+](=O)[O-])cc1[N+](=O)[O-]
At 150 µM (top of the series)
  activity change, negative = inhibition: inactive: -3.82%

## CN(C(=O)Cc1ccc(Cl)c(Cl)c1)[C@H]1CCCC[C@@H]1N1CCCC1
At 75.8 µM (top of the series)
  activity change, negative = inhibition: inactive: -6.03% and inactive: -11.6%

## CCNC(C)Cc1ccc2c(c1)OCO2 (centres undefined)
At 320 µM (top of the series)
  activity change, negative = inhibition: inactive: 14.1%

## CC(=O)C1=CCCC2CCC1N2 (centres undefined)
At 150 µM (top of the series)
  activity change, negative = inhibition: inactive: 16.3%

## COc1cc([N+](=O)[O-])c([N+](=O)[O-])cc1OC
At 150 µM (top of the series)
  activity change, negative = inhibition: inactive: 16.1%

## Cc1cc(C=O)ccc1N(CCCl)CCCl
At 150 µM (top of the series)
  activity change, negative = inhibition: inactive: 14.4%

## CN(C(=O)Cc1ccccc1)[C@H]1CC[C@@]2(CCCO2)C[C@@H]1N1CCCC1
At 150 µM (top of the series)
  activity change, negative = inhibition: inactive: 7.81%

## Cc1cc([N+](=O)[O-])cc([N+](=O)[O-])c1O
At 320 µM (top of the series)
  activity change, negative = inhibition: inactive: 20.6%

## COc1cccc([N+](=O)[O-])c1[N+](=O)[O-]
At 150 µM (top of the series)
  activity change, negative = inhibition: inactive: 15.1%

## O=C(OC1CN2CCC1CC2)c1ccccc1 (centres undefined)
At 150 µM (top of the series)
  activity change, negative = inhibition: inactive: 19.8%

## CN(C(=O)Cc1ccc(Cl)c(Cl)c1)[C@@H]1CCCC[C@@H]1N1CCCC1
At 75.8 µM (top of the series)
  activity change, negative = inhibition: inactive: 24.4%

## O=[N+]([O-])c1cc([N+](=O)[O-])c2nc[nH]c2c1
At 150 µM (top of the series)
  activity change, negative = inhibition: inactive: 8.53%

## CN(C(=O)Cc1ccccc1)[C@@H]1CC[C@]2(CCCO2)C[C@H]1N1CCCC1
At 75.8 µM (top of the series)
  activity change, negative = inhibition: inactive: 16.7%

## CN(C(=O)Cc1ccc(Cl)c(Cl)c1)[C@H]1CC[C@@]2(CCCO2)C[C@@H]1N1CCCC1
At 150 µM (top of the series)
  activity change, negative = inhibition: inactive: 30.7%

## NC(=O)Nc1ccc([As](=O)(O)O)cc1
At 150 µM (top of the series)
  activity change, negative = inhibition: inactive: 25.1%

## CN(C(=O)Cc1ccc(Cl)c(Cl)c1)[C@@H]1CC[C@]2(CCCO2)C[C@H]1N1CCCC1
At 75.8 µM (top of the series)
  activity change, negative = inhibition: inactive: 5.54%

## CN(C(=O)Cc1ccc(Cl)c(Cl)c1)[C@@H]1CCCC[C@H]1N1CCCC1
At 150 µM (top of the series)
  activity change, negative = inhibition: inactive: 13.6%

## CN(CCCl)Cc1cc(Cl)c(NC2=NCCN2)c(Cl)c1
At 75.8 µM (top of the series)
  activity change, negative = inhibition: inactive: -1.68%
At 150 µM (top of the series)
  activity change, negative = inhibition: inactive: -1.35%

— PubChem BioAssay AID1645882 (National Center for Advancing Translational Sciences (NCATS), 2021)
